We go through two compounds from patent US20190339279A1, “DETECTING NITROAROMATIC COMPOUNDS WITH PYRENE-LABELED STARCH NANOPARTICLES” (published 2019).

The structures appear in SMILES notation. Converted amounts (≈) assume the structure as drawn. Only a part of the results on these compounds is given; other tests are left out.

For data set [1] the following is noted: in water; cited from earlier work.
Data set [2] can be described thus: Quenching studies of Py-SNPs in DMSO (time-resolved fluorescence, Stern-Volmer). As to conditions: from slope of τ0/τ vs quencher concentration. From the text: Typically, Stern-Volmer plots are used to determine the bimolecular quenching rate constant kq. This parameter can be obtained from a Stern Volmer plot, namely a plot of the ratios F0/F or τ0/τ as a function of quencher concentration. In the absence of static quenching, both the F0/F and τ0/τ ratio should increase linearly with quencher concentration. From our experimental results, we find good agreement between the F0/F and τ0/τ ratios, and the slight discrepancy observed is most likely due to residual static quenching. It should be noted that the slopes from the τ0/τ ratios, which are unaffected by static quenching or re-absorption, were used to determine all kq values. Time-Resolved Fluorescence: All time-resolved fluorescence decays were acquired on an IBH fluorimeter equipped with an IBH 340 nm NanoLED. All solutions were excited at 346 nm and the fluorescence decays for the Py-SNPs were acquired at 375 and 510 nm for the monomer and excimer, respectively. To ensure a good signal-to-noise ratio, the fluorescence decays were acquired with 20,000 counts at the decay maximum. All decays were fitted with a sum of exponentials. […] The stock solution (3.7 g) was diluted with 1.3 g of DMSO to yield the solution “Sol A” with a pyrene concentration of 2.5·10^−6 M, corresponding to an absorbance of 0.1. […]

`Cc1c([N+](=O)[O-])cc([N+](=O)[O-])cc1[N+](=O)[O-]`: the water solubility in data set [1] is 127 µg/mL (≈ 559 µM).

Regarding `Cc1c([N+](=O)[O-])cccc1[N+](=O)[O-]`, the water solubility in data set [1] is 279 µg/mL (≈ 1530 µM). Further, the “bimolecular quenching rate constant kq” value in data set [2] is given as 2.2 (±0.2) M^−1 ns^−1.
